Target: Alkaline phosphatase, placental type (Homo sapiens) (UniProt P05187)
Assay: activation of human placental alkaline phosphatase – biochemical, luminescence, HTS (AID 696)
Conditions: purified PLAP enzyme, luminescent substrate read-out

Protein sequences, listed by entry. Tags and fused reporters are not part of them. Lines headed by an entry give the natural chain unless they say otherwise; changes in a name come on top.
UniProt P05187: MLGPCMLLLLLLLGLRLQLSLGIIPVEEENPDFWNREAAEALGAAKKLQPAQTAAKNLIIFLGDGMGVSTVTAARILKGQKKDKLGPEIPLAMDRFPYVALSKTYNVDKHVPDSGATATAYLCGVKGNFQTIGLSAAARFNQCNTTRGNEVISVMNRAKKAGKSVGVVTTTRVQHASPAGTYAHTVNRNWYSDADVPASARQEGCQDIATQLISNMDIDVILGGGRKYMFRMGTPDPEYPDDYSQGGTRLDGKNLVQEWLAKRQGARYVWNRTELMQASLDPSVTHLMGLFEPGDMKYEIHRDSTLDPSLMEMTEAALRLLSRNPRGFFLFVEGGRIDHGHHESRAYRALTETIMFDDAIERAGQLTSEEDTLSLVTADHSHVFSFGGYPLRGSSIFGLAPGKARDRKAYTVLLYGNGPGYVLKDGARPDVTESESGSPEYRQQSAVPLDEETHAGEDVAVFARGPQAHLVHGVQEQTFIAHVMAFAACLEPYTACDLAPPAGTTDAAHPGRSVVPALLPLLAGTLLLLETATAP

- EC50: 25.3 µM
SMILES: COc1ccc2c(c1OC)C(=O)OC2CC(=O)c1ccc(O)c(O)c1 (stereo unspecified)

Reference: PubChem BioAssay AID696 (Sanford-Burnham Center for Chemical Genomics, 2007)
